Values of other authors in US5476933A, “Azepine synthesis via a diels-alder reaction” (priority 1994, dated 1995).

System: neurons in brain ischemia
Conditions: literature; cited from earlier work

| SMILES | neuroprotective efficacy, in words |
| --- | --- |
| COc1ccc2c(c1)[C@]13CCCC[C@@H]1[C@H](C2)N(C)CC3 [dextromethorphan] | neuroprotective efficacy both in vitro and in vivo |
| CNC1(c2ccccc2Cl)CCCCC1=O (centres unmarked) [ketamine] | neuroprotective efficacy both in vitro and in vivo |
